{"sequences": {"note": "The chains behind the UniProt entries cited, without tags or fusion partners. Residues count along the entry.", "UniProt P40881, 35-247 limits assumed": "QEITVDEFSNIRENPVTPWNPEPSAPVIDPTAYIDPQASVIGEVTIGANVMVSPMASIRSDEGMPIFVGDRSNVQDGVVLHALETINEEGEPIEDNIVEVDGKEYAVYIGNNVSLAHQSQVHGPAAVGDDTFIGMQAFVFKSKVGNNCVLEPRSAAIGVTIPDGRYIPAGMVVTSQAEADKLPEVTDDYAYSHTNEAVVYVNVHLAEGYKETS"}, "source": "BindingDB's records for 15357993", "target": "Carbonic anhydrase (Methanosarcina thermophila (strain ATCC 43570 / DSM 1825 / OCM 12 / VKM B-1830 / TM-1), UniProt P40881)", "data": [{"compound": "[N-]=[N+]=[N-]", "values": [{"measurement": "Ki", "value": 5.8, "unit": "mM"}]}]}
